Laboratory results taken from patent US20230220038A1, “BRI2 BRICHOS DOMAIN FOR DELIVERY OF PROTEINS INTO CNS NEURONS” (ALPHABETA AB, priority 2021, published 2023).

Test system: hCMEC/D3 monolayer
Experiment: hCMEC/D3 monolayer permeability (in vitro human BBB model), western blot / fluorescence
Details: Table 3: 1 μM solution, 24 h incubation; percent of total amount added to the apical side
Protocol: For the preparation of the hCMEC/D3 cell monolayers, transwell ethylene terephthalate (PET) membrane inserts (24-well, clear, pore size 0.4 μm, CellQART, SABEU GmbH & Co. KG, Germany) were coated with rat tail type I collagen (150 μg/ml in 1× Dulbecco's Phosphate-buffered saline pH 7.4, 1×DPBS, Gibco, Thermo Fisher Scientific, Waltham, Mass.) for 2 h at 37° C. […] Media was changed every second day and the cell monolayer was established by day 6.
Experiments were conducted on culture day 6 by adding different BRICHOS protein constructs, or relevant controls to the apical side of the hCMEC/D3 monolayer. BRICHOS constructs used were rh proSP-C BRICHOS wt, rh proSP-C BRICHOS T187R, rh Bri2 BRICHOS wt monomers and oligomers, rh Bri2 BRICHOS R221E monomers, S-tag-Bri2 BRICHOS monomers and oligomers, mCherry-Bri2 BRICHOS monomers, NT-Bri2 BRICHOS monomers and oligomers and an unresolved mixture of different S-tag-Bri3 BRICHOS assembly states. […] Concentrations used were 1 μM, 0.5 μM, 0.25 μM, 0.1 μM or 0.05 μM; and incubation times were either 2 h or 24 h. […] After the incubation, medium on the apical and basolateral sides of the monolayer was removed and analyzed by Western blotting and the band intensities measured by ImageJ. For the western blot (see below) anti-Bri2 BRICHOS primary antibody (produced in goat and purified in house) in 1:1000 dilution, anti-proSP-C BRICHOS primary antibody (produced in goat and purified in house) at 1:2000 dilution, anti-S-tag primary antibody (S-tag protein HRP conjuc. Novagen, Merck, Germany) at 1:5000 dilution, anti-NT primary antibody (produced in rabbit and purified in house at 1:5000 dilution, anti-RFP primary antibody (produced in mouse, Thermo Fisher Scientific, Waltham, USA) at 1:1000 dilution and anti-human Apolipoprotein A-I primary antibody (produced in goat, Calbiochem, San Diego, Calif.) were used. For mCherry and mCherry-Bri2 BRICHOS monomers, fluorescence intensity of the apical and basolateral medium was recorded at λex 570 nm and λem 610 nm, after which the cells were fixed and analyzed by fluorescence microscopy to analyse the uptake of mCherry or mCherry-Bri2 BRICHOS into cells.
FITC fluorescence was measured at λex 492 nm and λem 518 nm. Insulin permeability was determined by western blot and an anti-Insulin monoclonal primary antibody (Sigma, St. Louis, Mo.) at 1:1000 dilution.
Spectra Multicolor Broad Range protein ladder was used (Thermo Fisher Scientific, Waltham, USA). For the monolayer permeability assessment, 4 μl of protein sample in cell culture media was loaded in the wells. For the cell uptake assessment, 7 μg of cell lysate was loaded.
The membranes were soaked in blocking buffer [5% nonfat dry milk (AppliChem, Germany) diluted in 1×PBS containing 0.1% Tween-20 (Sigma, St. Louis, Mo.) (1×PBS-T)] for 30 min at room temperature and incubated with the primary antibody overnight at 4° C. Membranes were washed 3 times with 0.5% nonfat dry milk in 1×TPBS-T and incubated with horseradish peroxidase conjugated secondary antibody (Goat Anti-Rabbit IgG from abcam, UK in 1:3000 dilution; Rabbit Anti-Goat IgG from Invitrogen, Waltham, Mass. at 1:10000 dilution; Rabbit Anti-Mouse IgG from Invitrogen, Waltham, Ma at 1:10000 dilution; Goat Anti-Human IgG Fc from Invitrogen, Waltham, Ma in 1:1000 dilution) for 1 h at room temperature. Membranes were washed again as above, and also twice with 1×PBS.

| Substance | Concentration % (Mean ± SD) Apical [%] | Concentration % (Mean ± SD) Basolateral [%] | Concentration % (Mean ± SD) Monolayer [%] |
| --- | --- | --- | --- |
| Human insulin [reference compound] | 85.1 | 13.4 | 1.6 |
| fluorescein isothiocyanate dextran [FITC-dextran, reference compound] | 98.8 ± 1.2 | 1.2 ± 1.2 | 0.0 ± 0.0 |
